Test results as given in patent US9212139B2, “Aryl substituted indoles and their use as blockers of sodium channels” (Purdue Pharma, L.P., priority 2010, dated 2015).

Amino acid sequences for entries named in this document (tags omitted). Chains listed by the source or under a name are the forms on record and can include a tag or linker.
UniProt Q15858, other isoform, or with tags, fused parts or gaps: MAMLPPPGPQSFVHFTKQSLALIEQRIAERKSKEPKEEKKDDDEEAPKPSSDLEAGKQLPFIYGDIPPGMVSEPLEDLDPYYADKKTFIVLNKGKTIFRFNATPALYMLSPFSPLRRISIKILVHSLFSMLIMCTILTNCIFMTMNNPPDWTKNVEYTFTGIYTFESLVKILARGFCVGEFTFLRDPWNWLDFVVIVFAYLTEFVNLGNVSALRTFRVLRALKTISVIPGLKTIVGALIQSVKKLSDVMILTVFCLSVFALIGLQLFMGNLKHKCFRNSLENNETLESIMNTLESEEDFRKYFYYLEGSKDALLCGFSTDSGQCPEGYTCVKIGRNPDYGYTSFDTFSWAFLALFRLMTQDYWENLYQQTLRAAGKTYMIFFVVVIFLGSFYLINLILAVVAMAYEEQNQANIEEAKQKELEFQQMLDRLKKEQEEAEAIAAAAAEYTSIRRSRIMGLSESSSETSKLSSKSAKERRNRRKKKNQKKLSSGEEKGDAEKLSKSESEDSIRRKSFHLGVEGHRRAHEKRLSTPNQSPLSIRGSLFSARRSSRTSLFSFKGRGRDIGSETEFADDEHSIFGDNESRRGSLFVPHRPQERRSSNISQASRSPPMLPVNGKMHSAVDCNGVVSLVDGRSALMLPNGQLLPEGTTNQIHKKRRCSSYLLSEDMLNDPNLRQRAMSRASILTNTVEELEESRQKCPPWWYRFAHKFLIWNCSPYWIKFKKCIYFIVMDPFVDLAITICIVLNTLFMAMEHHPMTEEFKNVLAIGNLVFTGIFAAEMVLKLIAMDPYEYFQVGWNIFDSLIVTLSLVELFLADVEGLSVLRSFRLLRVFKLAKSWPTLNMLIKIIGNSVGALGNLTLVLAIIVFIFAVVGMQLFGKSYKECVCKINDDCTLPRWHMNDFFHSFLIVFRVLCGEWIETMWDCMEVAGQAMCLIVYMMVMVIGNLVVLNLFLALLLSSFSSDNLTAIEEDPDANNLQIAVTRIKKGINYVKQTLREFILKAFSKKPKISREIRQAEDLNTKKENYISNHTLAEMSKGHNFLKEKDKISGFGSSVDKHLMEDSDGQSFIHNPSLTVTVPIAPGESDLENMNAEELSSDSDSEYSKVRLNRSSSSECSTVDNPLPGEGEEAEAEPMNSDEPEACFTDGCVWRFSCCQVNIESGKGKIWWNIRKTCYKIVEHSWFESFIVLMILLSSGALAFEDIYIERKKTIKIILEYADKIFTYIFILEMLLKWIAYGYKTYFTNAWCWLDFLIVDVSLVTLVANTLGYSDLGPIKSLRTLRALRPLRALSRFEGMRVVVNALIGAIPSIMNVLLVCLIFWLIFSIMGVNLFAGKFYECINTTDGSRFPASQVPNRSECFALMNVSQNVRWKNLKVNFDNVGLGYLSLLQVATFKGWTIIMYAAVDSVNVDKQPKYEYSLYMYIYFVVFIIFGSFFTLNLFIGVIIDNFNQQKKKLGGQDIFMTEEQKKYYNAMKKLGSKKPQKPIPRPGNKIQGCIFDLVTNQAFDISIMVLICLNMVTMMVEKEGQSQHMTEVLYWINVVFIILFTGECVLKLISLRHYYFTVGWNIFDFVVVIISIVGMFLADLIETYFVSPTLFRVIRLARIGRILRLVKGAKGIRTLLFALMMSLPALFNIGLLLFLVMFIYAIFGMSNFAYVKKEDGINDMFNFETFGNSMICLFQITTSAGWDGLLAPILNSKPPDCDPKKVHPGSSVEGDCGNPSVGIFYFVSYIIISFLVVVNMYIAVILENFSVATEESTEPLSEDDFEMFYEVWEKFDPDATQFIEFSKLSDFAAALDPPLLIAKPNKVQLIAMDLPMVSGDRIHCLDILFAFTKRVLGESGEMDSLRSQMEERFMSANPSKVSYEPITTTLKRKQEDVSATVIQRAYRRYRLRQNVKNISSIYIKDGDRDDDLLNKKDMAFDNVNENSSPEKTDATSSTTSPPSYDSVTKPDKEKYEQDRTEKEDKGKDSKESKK

Experiments:
hNav1.7 = hNav1.7 (Homo sapiens (Human), UniProt Q15858); test: Electrophysiology (EP) assay, whole-cell patch clamp; format: cell-based; details: read-out: EP Nav1.7 Ki
human Nav1.7 = human Nav1.7 (Homo sapiens (Human), UniProt Q15858); test: FLIPR or FLIPR TETRA sodium dye assay with KCl and test article pre-incubation; format: cell-based; details: read-out: FLIPR Nav1.7 IC50 (μM) ± SEM
Method: Recombinant Nav1.7 Cell Line: In vitro assays were performed in a recombinant cell line expressing cDNA encoding the alpha subunit (Nav1.7, SCN9a, PN1, NE) of human Nav1.7 (Accession No. NM_002977). The cell line was provided by investigators at Yale University (Cummins et al, J. Neurosci. 18(23): 9607-9619 (1998)). For dominant selection of the Nav1.7-expressing clones, the expression plasmid co-expressed the neomycin resistance gene. The cell line was constructed in the human embryonic kidney cell line, HEK293, under the influence of the CMV major late promoter, and stable clones were selected using limiting dilution cloning and antibiotic selection using the neomycin analogue, G418. […]
CoroNa™ Green AM Na^+ Dye for Primary Fluorescence Assay: The fluorescence indicator used in the primary fluorescence assay was the cell permeant version of CoroNa™ Green (Invitrogen, Molecular Probes, Eugene, Oreg.), a dye that emits light in the fluorescence range (Harootunian et al., J. Biol. Chem. 264(32):19458-19467 (1989)). […] Cells expressing Nav1.7 or other sodium channels were loaded with the CoroNa™ Green dye immediately in advance of the fluorescence assay, and then, after agonist stimulation, the mobilization of Na^+ ions was detected as the Na^+ ions flowed from the extracellular fluid into the cytoplasm through the activated sodium channel pores. […]

Compound: N#Cc1ccc(Oc2ccc(-n3nc(C(=O)NCC(O)CO)c4ccccc43)cc2)cc1 (centres unmarked) [Compound 159, 1-(4-(4-Cyanophenoxy)phenyl)-N-(2,3-dihydroxypropyl)-1H-indazole-3-carboxamide]
- Ki (hNav1.7): 930 nM
- IC50 (human Nav1.7): 0.431 ± 0.059 µM
